Data set [1] can be described thus: Tissue-distribution study after i.v. legubicin or doxorubicin. The note with it: HT1080 tumor-bearing mice, i.v. 9.05 µmol/kg of the labelled drug, n = 6; tissue-to-plasma ratio. As for the experimental part: The mixture was vortexed for 3 min, and then centrifuged at 22,000× g at 4 °C for 10 min. A final analysis was conducted by injecting 5 µL supernatant into a UHPLC-MS/MS system. Mouse plasma samples were treated in the same way as the rat plasma samples, except for protein precipitation, with 200 µL of 5 pmol/mL IS working solution and injection of 2 µL of supernatant for analysis.
Each legubicin administration group corresponded to a sampling time-point (4, 16, 32, 48, 96, 168, and 240 h after administration). […] Blood samples and tumor, heart, and kidney tissues were collected at the sampling time points (4, 16, 32, 48, 96, 168, and 240 h after dosing). In addition, liver, spleen, lung, stomach, small intestine, gonads, brain, skeletal muscle, and skin were also collected at 4, 32, 96, and 240 h post-dose time points in the legubicin administration group. All whole-blood samples were processed according to the same processing steps, described above, for rat whole-blood samples.
The analysis software (Version 1.5.2, AB Sciex, Vaughan, ON, Canada) was applied to data acquisition and quantification. Pharmacokinetic parameters were calculated with WinNonlin Phoenix (v6.4, Pharsight, Mountain View, CA, USA) with the noncompartmental method, and were presented as mean ± SD (%CV). The “Best fit” strategy in the WinNonlin Phoenix was used for the calculation of elimination half-life and the selection of the elimination phase. Graphs were plotted by GraphPad Software (GraphPad Prism 8.0.2; GraphPad Software, Inc., La Jolla, CA, USA).

Data set [2] is described as follows: Storage stability of analytes in mouse liver homogenate (method validation). Conditions: 3 cycles, low QC (Leu-DOX 27, DOX 10 pmol/mL), n = 6.

On to `COc1cccc2c1C(=O)c1c(O)c3c(c(O)c1C2=O)C[C@@](O)(C(=O)CO)C[C@@H]3O[C@H]1C[C@H](N)[C@H](O)[C@H](C)O1` [DOX, Doxorubicin], for which, in data set [1], the “T/P Ratio of doxorubicin, heart” value is on record as 27.1; the “T/P Ratio of doxorubicin, kidney” value stood at 78.0; the “T/P Ratio of doxorubicin, plasma” value worked out at 1.0; the “T/P Ratio of doxorubicin, tumor” value is reported as 59.0. In data set [2], the “Freeze and thaw stability at -80 °C/ room temperature, Bias” value is 10.4%.
